Measured values taken from patent publication US4843066A, “Novel adenosine derivatives and pharmaceutical composition containing them as an active ingredient” (priority 1986, dated 1989).

Assay: in vivo
Conditions: mouse, oral, in 0.5% C.M.C., ddY male mice, death rate for 7 days

## CNc1ncnc2c1ncn2[C@@H]1O[C@H](CO)[C@@H](O)[C@H]1OC [Compound 17, N^6-2'-O-dimethyladenosine]
  LD50 at 168 h: 1000 to 2000 mg/kg
